A short description of series [1]: Phase 2 part 2a: adverse events in 32-week semaglutide run-in, SAS. It is filed as in vivo, human. The settings on record: semaglutide 2.4 mg run-in.
The format of series [2] is in vivo, human. The settings on record: placebo + semaglutide 2.4 mg.

For semaglutide, the “AEs leading to treatment discontinuation” value in series [1] is listed as “four AEs led to treatment discontinuation”. In addition, the “participants who discontinued the study product” value in series [2] (part 2, n = 28) came out at 5 participants. In series [2] (part 2b), the “AEs leading to premature treatment discontinuation” value is on record as 10.7%, the “gastrointestinal AEs” value was determined as 29% and the severe events was 4%.
